The values below come from US5917056A (priority 1995, dated 1999).

The assay has as its system MCF7-ADR (resistant). Briefly: Cytotoxicity on tumour cell lines, MCF7-ADR (resistant). Type of assay: cell-based, Human. The settings on record: exposure time 72 h.

The structures appear in SMILES notation.

Consider `CC(=O)O[C@H]1C(=O)[C@@]2(C)[C@H]([C@H](OC(=O)c3ccccc3)[C@]34OC(=S)O[C@H]3[C@H](OC(=O)[C@H](O)[C@H](CC(C)C)NC(=O)OC(C)(C)C)C(C)=C1C4(C)C)[C@]1(OC(C)=O)CO[C@@H]1C[C@@H]2O` [Compound 5, 13-[(2R,3S)-3-tert-butoxycarbonyl-amino-2-hydroxy-3-isobutyl-propanoyl]-14β-hydroxybaccatine III 1,14-thiocarbonate], for which the IC50 (as a rule, the midpoint of a concentration-inhibition curve) turned out to be 18 nM.
In turn, `CCCCCC(=O)N[C@@H](C=C(C)C)[C@@H](O)C(=O)O[C@@H]1C(C)=C2[C@@H](OC(C)=O)C(=O)[C@@]3(C)[C@H]([C@H](OC(=O)c4ccccc4)[C@@]4(OC(=N)O[C@@H]14)C2(C)C)[C@]1(OC(C)=O)CO[C@@H]1C[C@@H]3O` [Compound 8, 13-[(2R,3S)-3-caproylamino-2-hydroxy-3-isobutenyl-propanoyl]-14β-hydroxybaccatine III 1,14-iminocarbonate] gave an IC50 of 21 nM.
The compound `CCCCCC(=O)N[C@@H](C=C(C)C)[C@@H](O)C(=O)O[C@@H]1C(C)=C2[C@@H](OC(C)=O)C(=O)[C@@]3(C)[C@H]([C@H](OC(=O)c4ccccc4)[C@@]4(OS(=O)O[C@@H]14)C2(C)C)[C@]1(OC(C)=O)CO[C@@H]1C[C@@H]3O` (stereo partly drawn) [Compound 9, 13-[(2R,3S)-3-caproylamino-2-hydroxy-3-isobutenyl-propanoyl]-14β-hydroxybaccatine-III 1,14-sulfite] registered an IC50 of 16 nM.
